Measurements as given in patent US20050221328A1, “Inhibitors of inflammatory gene activity and cholesterol biosynthesis” (Wyeth, priority 2002, published 2005).

Chains of the proteins cited; added tags and fusions are not shown.
UniProt Q92731, whole entry: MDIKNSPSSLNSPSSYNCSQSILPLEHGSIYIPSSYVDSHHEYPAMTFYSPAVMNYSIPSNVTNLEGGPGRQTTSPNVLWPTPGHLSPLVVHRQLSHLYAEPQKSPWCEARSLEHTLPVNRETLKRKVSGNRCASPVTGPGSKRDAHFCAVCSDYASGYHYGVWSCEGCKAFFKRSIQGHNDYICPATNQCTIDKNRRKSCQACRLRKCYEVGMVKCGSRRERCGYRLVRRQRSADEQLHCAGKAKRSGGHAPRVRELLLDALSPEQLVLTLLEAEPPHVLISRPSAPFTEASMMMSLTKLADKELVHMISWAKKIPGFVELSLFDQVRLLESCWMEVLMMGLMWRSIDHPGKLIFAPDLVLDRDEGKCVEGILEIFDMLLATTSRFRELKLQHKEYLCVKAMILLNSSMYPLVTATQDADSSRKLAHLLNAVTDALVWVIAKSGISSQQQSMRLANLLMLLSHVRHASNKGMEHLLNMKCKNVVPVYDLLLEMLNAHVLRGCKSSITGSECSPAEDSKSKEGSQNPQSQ

Molecular target: human ERβ (Homo sapiens, UniProt Q92731)
Experiment: IL-1β induction of NFκB driven luciferase reporter in HepG2 cells transfected with ERβ
Assay type: cell-based
Conditions: HepG2, 10 nM 17β-estradiol, 100 U/ml IL-1β 6 hours, p<0.01; less efficacious than ERα

SMILES: C[C@]12CC[C@@H]3c4ccc(O)cc4CC[C@H]3[C@@H]1CC[C@@H]2O [E2, 17β-estradiol]
- IL-1β induction of luciferase activity (NFκB reporter), ERβ: significantly repressed
